Measured values from patent publication US4585777A, “(-)-Trans-4-(4-fluorophenyl)-3-(4-methoxyphenoxy)methylpiperidine for potentiating 5-HT” (A/S Ferrosan, priority 1984, dated 1986).

What was measured:
5-HT uptake = assay: Potentiation of 5-HTP (5-Hydroxytryptophane) induced hypermotility in mice (Procedure/Test 173); 5-HT potentiation or 5-HT uptake-inhibition; type: in vivo, mice (female, NMRI strain); conditions: Mus musculus, sc, read-out: Test 173: dose increasing the activity to double the activity of controls receiving 5-HTP alone (ED), mice, s.c.; 5-HTP 150 mg/kg i.p. 30 min before; motility 45-75 min after 5-HTP; water-soluble salt
Excerpt: (§1) (J. Buus Lassen, European Journal of Pharmacology 47, 351-358 (1978)). See also Squires in Acta Pharmacol. et Toxicol, 1972, 31 Suppl. 1,35 for a description of a further procedure for measurement of the same 5-HT uptake-inhibitory phenomenon.
I. Potentiation of 5-HTP (5-Hydroxytryptophane) induced hypermotility in mice (Procedure 173)
This behavior is characterized by continuous jerky locomotion, head movements from side to side, abduction of the hind limbs, tremor, and lordosis.
Measurement of the motility after administration of test drugs to 5-HTP-pretreated mice is therefore used as a test for 5-HT-potentiation, which most probably proceeds through an inhibition of 5-HT uptake.
Method: Female mice of the NMRI strain weighing 20-22 g are used. The controls receive 5-HTP 150 mg/kg (15 ml/kg) i.p. (i.p.=intraperitoneally) and thirty (30) minutes later physiological saline (20 ml/kg) s.c. (s.c.=subcutaneously). The motility is measured by an Animex™ motimeter 45-75 minutes after 5-HTP administration. The test animals received test substances s.c. (20 ml/kg) instead of physiological saline. Five groups of two (2) mice are used for control and per dose of each test drug. the test substance is dosed according to the dose scale 1, 1.6, 2.5, 4, 6.3, and 10 mg/kg etc.
The best straight line is fitted through the points in a coordinate system (abscissa log dose, ordinate log activity). […]

in vivo = conditions: mouse, sc, TI (Therapeutic Index), 001/173, LD50/ED50, mice s.c.
Excerpt: as §1

SMILES: Fc1ccc([C@@H]2CCNC[C@H]2COc2ccc3c(c2)OCO3)cc1 (single isomer, unassigned) [FG 7051, reference compound]
- ED (2-fold activity of controls) (5-HT uptake): 1.7 mg/kg
- selectivity ratio (in vivo): 168
